ChEMBL document CHEMBL4680235, “Structure-based discovery of novel 4-(2-fluorophenoxy)quinoline derivatives as c-Met inhibitors using isocyanide-involved multicomponent reactions” (Eur J Med Chem, 2020)

Tests used:
Homo sapiens [1] = species: Homo sapiens; assay: Selectivity ratio of IC50 for inhibition of Flt4 (unknown origin) to IC50 for inhibition of c-MET (unknown origin)
Homo sapiens [2] = species: Homo sapiens; assay: Selectivity ratio of IC50 for inhibition of VEGFR2 (unknown origin) to IC50 for inhibition of c-MET (unknown origin)

Ratio IC50 (Homo sapiens [1]): 222 | Ratio IC50 (Homo sapiens [2]): 121
SMILES: COc1cc2nccc(Oc3ccc(NC(=O)C(OC(=O)c4ccc(F)cc4)C(C)(C)C)cc3F)c2cc1OC (racemic)
